PubChem BioAssay (NCI)
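The compound was tested at five concentrations on cells cultured in 96-well plates, with a 48-hour exposure period. The concentration for 50% growth inhibition is given as GI50. TGI denotes the concentration required for complete inhibition of growth.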

How the values were obtained:
Test in all cases: NCI-60 cell line screen, 48 h
[1] = system: M19-MEL melanoma
[2] = system: IGROV1 ovarian
[3] = system: RXF-631 renal
[4] = system: UACC-62 melanoma
[5] = system: NCI-H322M lung
[6] = system: A498 renal
[7] = system: A549 NSCLC
[8] = system: MALME-3M melanoma
[9] = system: COLO 205 colon
[10] = system: RXF 393 renal
[11] = system: KM12 colon
[12] = system: SNB-19 CNS
[13] = system: OVCAR-5 ovarian
[14] = system: DMS 114 small cell lung
[15] = system: U251 CNS
[16] = system: SF-295 CNS
[17] = system: LOX IMVI melanoma
[18] = system: 786-0 renal
[19] = system: HL-60(TB) leukemia
[20] = system: KM20L2 colon
[21] = system: SNB-75 CNS
[22] = system: MOLT-4 leukemia
[23] = system: SW-620 colon
[24] = system: OVCAR-4 ovarian
[25] = system: BT-549 breast
[26] = system: PC-3 prostate
[27] = system: DMS 273 small cell lung
[28] = system: SF-539 CNS
[29] = system: NCI-H226 lung
[30] = system: OVCAR-3 ovarian
[31] = system: HOP-62 NSCLC
[32] = system: UACC-257 melanoma
[33] = system: NCI-H460 lung
[34] = system: NCI-H23 lung
[35] = system: UO-31 renal
[36] = system: SK-MEL-2 melanoma
[37] = system: K-562 leukemia
[38] = system: MDA-MB-435
[39] = system: HOP-92 NSCLC
[40] = system: T-47D breast
[41] = system: HS 578T breast
[42] = system: MCF7 breast
[43] = system: HCC-2998 colon
[44] = system: HCT-15 colon
[45] = system: CCRF-CEM leukemia
[46] = system: NCI/ADR-RES ovarian
[47] = system: ACHN renal
[48] = system: SK-MEL-28 melanoma
[49] = system: EKVX NSCLC
[50] = system: MDA-N
[51] = system: SN12C renal
[52] = system: DLD-1 colon
[53] = system: RPMI-8226 leukemia
[54] = system: MDA-MB-231 breast
[55] = system: HOP-18 NSCLC
[56] = system: TK-10 renal
[57] = system: OVCAR-8 ovarian
[58] = system: M14 melanoma
[59] = system: CAKI-1 renal
[60] = system: NCI-H522 lung
[61] = system: SK-OV-3 ovarian
[62] = system: HT29 colon
[63] = system: SF-268 CNS
[64] = system: HCT-116 colon
[65] = system: SR leukemia
[66] = system: LXFL 529 NSCLC
[67] = system: SK-MEL-5 melanoma

O=[As](O)(O)CC(O)CO (centres undefined) gave a GI50 [1] greater than 100 µM, a TGI [1] greater than 100 µM and a GI50 [2] greater than 100 µM. It also gave a TGI [2] greater than 100 µM, a GI50 [3] greater than 100 µM and a TGI [3] greater than 100 µM. The GI50 [4] was greater than 100 µM, the TGI [4] was greater than 100 µM and the GI50 [5] was greater than 100 µM. For the same compound, the TGI [5] was greater than 100 µM, the GI50 [6] was greater than 100 µM and the TGI [6] was greater than 100 µM. The GI50 [7] was greater than 100 µM, the TGI [7] was greater than 100 µM and the GI50 [8] was greater than 100 µM. For the same compound, the TGI [8] was greater than 100 µM, the GI50 [9] was greater than 100 µM and the TGI [9] was greater than 100 µM. For the same compound, the GI50 [10] was greater than 100 µM, the TGI [10] was greater than 100 µM and the GI50 [11] was greater than 100 µM. The TGI [11] was greater than 100 µM, the GI50 [12] was greater than 100 µM and the TGI [12] was greater than 100 µM. For the same compound, the GI50 [13] was greater than 100 µM, the TGI [13] was greater than 100 µM and the GI50 [14] was greater than 100 µM. The TGI [14] was greater than 100 µM, the GI50 [15] was greater than 100 µM and the TGI [15] was greater than 100 µM. For the same compound, the GI50 [16] was greater than 100 µM, the TGI [16] was greater than 100 µM and the GI50 [17] was greater than 100 µM. The TGI [17] was greater than 100 µM, the GI50 [18] was greater than 100 µM and the TGI [18] was greater than 100 µM. For the same compound, the GI50 [19] was greater than 100 µM, the TGI [19] was greater than 100 µM and the GI50 [20] was greater than 100 µM. It also gave a TGI [20] greater than 100 µM, a GI50 [21] greater than 100 µM and a TGI [21] greater than 100 µM. It also gave a GI50 [22] greater than 100 µM, a TGI [22] greater than 100 µM and a GI50 [23] greater than 100 µM. It also gave a TGI [23] greater than 100 µM, a GI50 [24] greater than 100 µM and a TGI [24] greater than 100 µM. The GI50 [25] was greater than 100 µM, the TGI [25] was greater than 100 µM and the GI50 [26] was greater than 100 µM. The TGI [26] was greater than 100 µM, the GI50 [27] was greater than 100 µM and the TGI [27] was greater than 100 µM. For the same compound, the GI50 [28] was greater than 100 µM, the TGI [28] was greater than 100 µM and the GI50 [29] was greater than 100 µM. It also gave a TGI [29] greater than 100 µM, a GI50 [30] greater than 100 µM and a TGI [30] greater than 100 µM. It also gave a GI50 [31] greater than 100 µM, a TGI [31] greater than 100 µM and a GI50 [32] greater than 100 µM. The TGI [32] was greater than 100 µM, the GI50 [33] was greater than 100 µM and the TGI [33] was greater than 100 µM. The GI50 [34] was greater than 100 µM, the TGI [34] was greater than 100 µM and the GI50 [35] was greater than 100 µM. It also gave a TGI [35] greater than 100 µM, a GI50 [36] greater than 100 µM and a TGI [36] greater than 100 µM. It also gave a GI50 [37] greater than 100 µM, a TGI [37] greater than 100 µM and a GI50 [38] greater than 100 µM. The TGI [38] was greater than 100 µM, the GI50 [39] was greater than 100 µM and the TGI [39] was greater than 100 µM. It also gave a GI50 [40] greater than 100 µM, a TGI [40] greater than 100 µM and a GI50 [41] greater than 100 µM. The TGI [41] was greater than 100 µM, the GI50 [42] was greater than 100 µM and the TGI [42] was greater than 100 µM. For the same compound, the GI50 [43] was greater than 100 µM, the TGI [43] was greater than 100 µM and the GI50 [44] was greater than 100 µM. It also gave a TGI [44] greater than 100 µM, a GI50 [45] greater than 100 µM and a TGI [45] greater than 100 µM. For the same compound, the GI50 [46] was greater than 100 µM, the TGI [46] was greater than 100 µM and the GI50 [47] was greater than 100 µM. For the same compound, the TGI [47] was greater than 100 µM, the GI50 [48] was greater than 100 µM and the TGI [48] was greater than 100 µM. The GI50 [49] was greater than 100 µM, the TGI [49] was greater than 100 µM and the GI50 [50] was greater than 100 µM. The TGI [50] was greater than 100 µM, the GI50 [51] was greater than 100 µM and the TGI [51] was greater than 100 µM. For the same compound, the GI50 [52] was greater than 100 µM, the TGI [52] was greater than 100 µM and the GI50 [53] was greater than 100 µM. It also gave a TGI [53] greater than 100 µM, a GI50 [54] greater than 100 µM and a TGI [54] greater than 100 µM. For the same compound, the GI50 [55] was greater than 100 µM, the TGI [55] was greater than 100 µM and the GI50 [56] was greater than 100 µM. For the same compound, the TGI [56] was greater than 100 µM, the GI50 [57] was greater than 100 µM and the TGI [57] was greater than 100 µM. The GI50 [58] was greater than 100 µM, the TGI [58] was greater than 100 µM and the GI50 [59] was greater than 100 µM. The TGI [59] was greater than 100 µM, the GI50 [60] was greater than 100 µM and the TGI [60] was greater than 100 µM. The GI50 [61] was greater than 100 µM, the TGI [61] was greater than 100 µM and the GI50 [62] was greater than 100 µM. For the same compound, the TGI [62] was greater than 100 µM, the GI50 [63] was greater than 100 µM and the TGI [63] was greater than 100 µM. The GI50 [64] was greater than 100 µM, the TGI [64] was greater than 100 µM and the GI50 [65] was greater than 100 µM. The TGI [65] was greater than 100 µM, the GI50 [66] was greater than 100 µM and the TGI [66] was greater than 100 µM. For the same compound, the GI50 [67] was greater than 100 µM and the TGI [67] was greater than 100 µM.
